Results as given in ChEMBL document CHEMBL5346980, “1,5-Diaryl-1,2,4-triazole Ureas as New SLC-0111 Analogues Endowed with Dual Carbonic Anhydrase and VEGFR-2 Inhibitory Activities” (J Med Chem, 2023).
pIC50: −log10 of the molar value.

The chains behind the UniProt entries cited, without tags or fusion partners.
UniProt P35968, whole entry: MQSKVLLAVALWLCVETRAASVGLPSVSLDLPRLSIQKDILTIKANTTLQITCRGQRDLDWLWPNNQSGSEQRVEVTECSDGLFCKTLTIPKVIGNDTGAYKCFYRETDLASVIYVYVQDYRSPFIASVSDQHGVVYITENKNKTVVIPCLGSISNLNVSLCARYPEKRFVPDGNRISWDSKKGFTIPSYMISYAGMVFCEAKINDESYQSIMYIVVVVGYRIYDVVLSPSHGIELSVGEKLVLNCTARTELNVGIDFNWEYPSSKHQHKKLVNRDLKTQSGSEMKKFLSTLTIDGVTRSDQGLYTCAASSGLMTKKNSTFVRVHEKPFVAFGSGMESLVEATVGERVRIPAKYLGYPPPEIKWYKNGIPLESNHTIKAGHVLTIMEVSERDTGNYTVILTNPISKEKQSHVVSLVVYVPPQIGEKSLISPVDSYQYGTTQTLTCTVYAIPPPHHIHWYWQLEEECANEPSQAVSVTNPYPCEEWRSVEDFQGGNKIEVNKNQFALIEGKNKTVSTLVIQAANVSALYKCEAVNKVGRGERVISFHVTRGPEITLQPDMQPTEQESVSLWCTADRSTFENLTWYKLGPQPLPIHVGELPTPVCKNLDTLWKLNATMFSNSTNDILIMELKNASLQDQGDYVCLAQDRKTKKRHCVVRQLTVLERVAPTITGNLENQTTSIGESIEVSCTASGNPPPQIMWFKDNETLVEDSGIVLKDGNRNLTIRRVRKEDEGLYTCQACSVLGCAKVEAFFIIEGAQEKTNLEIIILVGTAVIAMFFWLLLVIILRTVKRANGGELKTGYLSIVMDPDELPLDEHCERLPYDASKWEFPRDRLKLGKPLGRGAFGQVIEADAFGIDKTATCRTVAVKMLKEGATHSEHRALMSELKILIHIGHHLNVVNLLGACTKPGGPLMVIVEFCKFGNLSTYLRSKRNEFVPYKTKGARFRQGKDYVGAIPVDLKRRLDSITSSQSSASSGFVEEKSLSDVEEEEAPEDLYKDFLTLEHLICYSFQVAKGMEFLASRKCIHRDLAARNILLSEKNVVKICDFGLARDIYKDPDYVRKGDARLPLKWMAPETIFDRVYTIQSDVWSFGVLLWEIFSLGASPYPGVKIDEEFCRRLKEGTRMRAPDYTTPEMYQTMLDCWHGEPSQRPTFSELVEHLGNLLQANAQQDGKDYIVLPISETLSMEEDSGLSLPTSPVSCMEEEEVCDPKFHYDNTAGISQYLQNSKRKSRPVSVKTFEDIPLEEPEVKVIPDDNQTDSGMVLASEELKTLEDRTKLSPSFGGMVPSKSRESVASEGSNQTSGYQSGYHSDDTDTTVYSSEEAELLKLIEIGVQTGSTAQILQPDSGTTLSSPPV

Biological target: Vascular endothelial growth factor receptor 2 (Homo sapiens, UniProt P35968)

**Q.** `NS(=O)(=O)c1ccc(NC(=O)Nc2nc(-c3ccccc3)n(-c3ccc(F)cc3)n2)cc1` was tested. Which pIC50 did it give?
**A.** Its pIC50 is 7.58.
